Laboratory results published in US20240043442A1, “SELECTIVE ESTROGEN RECEPTOR DEGRADERS AND USES THEREOF” (InventisBio LLC, priority 2016, published 2024).

System: breast cancer cell line MCF-7
Experiment: MCF-7 cell growth study (celltiter-glo luminescent viability assay);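 note: viability read by luminescence after compound exposure, relative to DMSO vehicle-treated wells on the same plate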
Type: cell-based
Conditions: Homo sapiens, MCF7, 144 h, MCF-7 cells, 6 days incubation; read-out: IC50 (nM), cell growth inhibition

`C[C@@H]1Cc2c([nH]c3ccccc23)[C@@H](c2c(F)cc(/C=C/C(=O)O)cc2F)N1CC(C)(C)F` [AZD9496, reference compound] showed an IC50 of 0.4 nM.
